US20160368853A1, “MONOESTERS, INNER COMPLEX SALTS OR MONOESTER SALTS OF HEXAHYDRO-BETA-ACID AND APPLICATION THEREOF AS ANIMAL FEED ADDITIVES” (GUANGZHOU INSIGHTER BIOTECHNOLOGY CO., LTD., priority 2014, published 2016)

Assay: Thermo stability test of esters and/or salts of hexahydro-β-acid (2% premix, 100° C., HPLC)
Type: physicochemical
Details: premix with corncob powder, initial content 2.0%, oven 100° C.
Experimental: Samples (the premixes) were placed in crucibles, and then placed in oven at 100° C. for different durations. Then 1.0 g of each of the samples (three duplicate samples from each sample) and 50 ml of ethanol were added into a conical flask, followed by the addition of 100 μL of concentrated hydrochloric acid. The mixture was then subjected to sonication for 5 minutes, and then filtrated. The filtrate was transferred into a 50 ml volumetric flask, topped up to the final volume with ethanol, and then filtered with a 0.45 μm microporous membrane and subjected to HPLC analysis.

butyrate ester of hexahydro-β-acid
Content when being heated at 100° C. for 20 h (20 h): 1.74%
Content when being heated at 100° C. for 44 h (44 h): 0.69%
